This test addresses D(2) dopamine receptor (Homo sapiens, UniProt P14416). The test is described as follows: Displacement of [3H]spiperone from human recombinant dopamine D2L receptor expressed in HEK293 cells by microplate scintillation counting. Type of test: cell-based. The procedure, abridged: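 Human D2L or D3 receptor stably expressed in HEK cells, or D4.4 in CHO cells. Competition binding against [3H]spiperone as the D2-like radioligand. Ki values in nM are means of two or three experiments, each run in triplicate, ± SEM.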
A general note: Displacement assays read how much labelled ligand stays bound in the presence of the test substance.

Protein sequences, listed by entry. Tags and fused reporters are not part of them.
UniProt P14416, whole entry: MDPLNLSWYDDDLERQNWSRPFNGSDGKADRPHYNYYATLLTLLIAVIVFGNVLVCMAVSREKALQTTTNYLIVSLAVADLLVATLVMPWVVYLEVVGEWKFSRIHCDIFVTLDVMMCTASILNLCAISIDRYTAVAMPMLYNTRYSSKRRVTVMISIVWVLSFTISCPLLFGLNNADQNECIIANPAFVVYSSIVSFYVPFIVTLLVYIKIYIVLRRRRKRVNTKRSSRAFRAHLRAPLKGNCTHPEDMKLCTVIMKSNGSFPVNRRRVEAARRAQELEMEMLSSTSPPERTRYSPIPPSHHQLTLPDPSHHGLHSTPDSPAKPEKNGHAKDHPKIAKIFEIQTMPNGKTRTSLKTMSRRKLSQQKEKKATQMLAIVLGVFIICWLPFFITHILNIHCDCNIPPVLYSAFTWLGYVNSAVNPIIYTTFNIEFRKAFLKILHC

SMILES strings stand for the structures. Some results are limits rather than exact numbers.

As usually defined, the Ki is a dissociation constant, usually derived from enzyme kinetics or from competition with a known ligand.

As to `c1ccc2c(c1)CCN1Cc3cccc4[nH]cc(c34)C21` (stereo unspecified), the Ki is above 10 µM.

Source of the values: ChEMBL document CHEMBL1155427, “Dopamine receptor ligands. Part 18: (1) modification of the structural skeleton of indolobenzazecine-type dopamine receptor antagonists” (J Med Chem, 2010).
